Measured values as given in PubChem BioAssay (EPA / NIEHS).
This is one part of the list. Records with an inconclusive call do not appear. Activity calls are given as the source filed them. How the source made its calls: active means hit-call score of the fitted dose curve at least 0.9, where 1 is the maximum; inactive means score below 0.9.

Assay: ATG_M_61_TRANS: Attagene TRANS-FACTORIAL HepG2 Assay for M61 Transcription Factor (Internal Marker) (AID 2282988)
Settings: HepG2 Attagene TRANS M61 internal marker reporter
Protocol: ATG_TRANS is a cell-based, multiplexed-readout assay that uses HepG2, a human liver cell line, with measurements taken at 24 hours after chemical dosing in a 24-well plate.ATG_M_61_TRANS is one of 30 assay component(s) measured or calculated from the ATG_TRANS assay. It is designed to make measurements of mRNA induction, a form of inducible reporter, as detected with fluorescence intensity signals by Reverse transcription polymerase chain reaction (RT-PCR) and Capillary electrophoresis technology.Data from the assay component ATG_M_61_TRANS was analyzed into 1 assay endpoint. This assay endpoint, ATG_M_61_TRANS, was analyzed in the positive analysis fitting direction relative to DMSO as the negative control and baseline of activity. […] Furthermore, this assay endpoint can be referred to as a secondary readout, because this assay has produced multiple assay endpoints where this one serves a background control function. […]
Human liver HepG2 cells are transiently transfected with multiple reporter transcription units (MRTUs) in 6-well plates using FuGene 6 reagent (Roche; 3 ml FuGene/1 mg DNA). […] A major difference between the CIS and TRANS system is that in CIS activities of endogenous TFs are measured, whereas the TRANS assay evaluates changes in activities of exogenous, chimeric NR-Gal4 proteins. […]

Compound | outcome
ClCCNCCCl | inactive
CCOP(=O)(Cl)Cl | inactive
